Tests used:
collagen I = assay: expression of collagen I increased by TGF-β1 in hepatocytes AML12; type: cell-based, mouse; settings: AML12 cells; 5 nM colchicine + 30 μg/ml DPP-4 inhibitor, TGF-β1 (5 ng/ml)
Experimental: (§1) Mouse hepatocytes, AML12 cells, were incubated at 37° C., 95% air and 5% CO2 in a DMEM/F12 medium containing 5 μg/ml insulin, 5 μg/ml transferrin, 5 ng/ml selenium, 40 ng/ml dexamethasone, 10% fetal bovine serum (FBS) and 1% penicillin/streptomycin. AML12 cells pre-treated with 5 nM of colchicine and 30 μg/ml of a dipeptidyl peptidase-4 (DPP-4) inhibitor were treated with TGF-β1 (5 ng/ml) or 0.2 mM of palmitate after 8 hours, and further incubated for additional 16 hours.
(§2) Total RNA was extracted using an RNeasy mini kit (Qiagen), and then synthesized into cDNA using a high-capacity cDNA reverse transcription kit (Thermo Fisher). The same amount of cDNA was amplified using a SYBR™ green PCR master mix and a 10 pM primer set for each gene. The amplification process was subjected to an initial denaturation process at 95° C. for 5 minutes, and repetitively replication at 95° C. for 10 seconds, 58.5° C. for 10 seconds, and 72° C. for 10 seconds for a total of 40 times.

SREBP1 = assay: expression of SREBP1 induced by palmitate in hepatocytes AML12; type: cell-based, mouse; settings: AML12 cells; 5 nM colchicine + 30 μg/ml DPP-4 inhibitor, 0.2 mM palmitate
Experimental: as §1, §2

## Cn1c(=O)cc(N2CCC[C@@H](N)C2)n(Cc2ccccc2C#N)c1=O [alogliptin]
Collagen I
  additive interaction with colchicine in inhibiting the expression of collagen I: excluding
SREBP1
  additive interaction with colchicine in inhibiting the expression of SREBP1: excluding
